Assay results published in PMC12631437, “Evaluation of the Activity of 4‑Quinolones against Multi-Life Stages of Plasmodium spp” (ACS Omega, 2025).

System: P. berghei sexual phases in An. stephensi
Experiment: In vivo transmission-blocking assay, P. berghei infected CD1 mice, An. stephensi
Design: species or system Plasmodium berghei
Conditions: positive control, 25 mg/kg x 2/12h
Procedure: For this assay, a colony of An. stephensi was used. The lab-reared An. stephensi was kept under controlled conditions, with a temperature of 26 °C ± 1 °C, a 12/12 h light/dark cycle, a relative humidity of 70% ± 10%, and fed a 30% sugar solution as needed.
Female CD1 mice (4 to 6 weeks old) were infected by intraperitoneal inoculation (i.p.) containing 10 million erythrocytes infected with P. berghei expressing the GFP fluorescent protein. After 4 days, when parasites in the sexual stages were detected via Giemsa-stained blood smears, mice with similar gametocytemia and parasitemia were randomly divided into three groups of two animals each. The groups of two mices were treated orally with compound 1 at two doses of 50 mg/kg, spaced 12 h apart. […] Following the second dose, mice were anesthetized and placed in individual cages containing approximately 50 female A. stephensi mosquitoes, which had been starved for 24 h before the assay. Blood feeding lasted for 30 min, after which unfed mosquitoes were removed. Engorged females were maintained in an insectary at 21 ± 1 °C and 60% relative humidity, receiving a 30% glucose solution.
A group of 10 mosquitoes was set aside to assess sporozoite development in salivary glands, following a protocol similar to the one described previously, with dissections performed 21 days postblood meal. […]

## COc1cc(NC(C)CCCN)c2ncccc2c1 (stereo not shown) [Primaquine, reference compound]
  infection of mosquitoes that fed on treated mice: not infected
